Ab-14 heavy chain CDR variants: yeast mating affinities

The measurements come from Engelhart et al. 2022 (doi:10.1038/s41597-022-01779-4) through the FLAb antibody collection.

Target peptide (SARS-CoV-2 spike, HR2 region): PDVDLGDISGINAS

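The parent was found by panning a naive human phage display library on the peptide. In library AAYL49, one, two or three CDR residues were substituted; doubles and triples were drawn at random. The scFvs were displayed on barcoded MATa yeast, the peptide on MATalpha yeast. Mating (16 h, 30 °C) was followed by selection of diploids and sequencing of their barcodes. Each replicate has its own calibration line, from reference interactions of the BCL2 family. Mating was done three times.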

The variants keep the light chain, the linker and the frameworks of Ab-14 (scFv order VH, a 15-residue (Gly4Ser)3 linker, VL).
VH: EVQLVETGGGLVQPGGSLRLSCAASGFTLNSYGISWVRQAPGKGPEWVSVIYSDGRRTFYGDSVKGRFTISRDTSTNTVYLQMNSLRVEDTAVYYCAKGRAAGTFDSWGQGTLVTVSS
VL: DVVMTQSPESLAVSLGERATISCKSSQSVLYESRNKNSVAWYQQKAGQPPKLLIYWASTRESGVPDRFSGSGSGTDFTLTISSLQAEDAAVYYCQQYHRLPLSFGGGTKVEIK

Each variant's VH is given in full. This list gathers variants with a substitution at A102 (VH, numbered from residue 1). Kd is apparent (estimated from mating counts) and averaged on the log scale over replicates with a signal. Smaller is tighter. A pair that was not seen in any replicate is written "nd"; this usually means weak binding, but a binder can also be missed. Empty control strains, which show no peptide, gave a signal in 15% of pairings with library AAYL49; the median was 11 µM and 95% of these signals were weaker than 680 nM. No background was subtracted. For reference, the parent read 4.4 nM as the reference entry and 13 µM (one replicate of three) as a member of this library.

For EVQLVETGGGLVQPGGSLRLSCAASGFTLNSYFINWVRQAPGKGPEWVSVIYSDGRRTFYGDSVKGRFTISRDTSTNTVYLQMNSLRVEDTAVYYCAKGRARGTFDSWGQGTLVTVSS, the assay gave 5.9 µM (1 of 3 replicates).
For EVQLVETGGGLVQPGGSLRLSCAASGFTLNSYGISWVRQAPGKGPEWVSVIYSDGRRTFYGFSVKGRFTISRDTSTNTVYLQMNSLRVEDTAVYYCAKSRAKGTFDSWGQGTLVTVSS, the assay gave 3.4 µM (1 of 3 replicates).
For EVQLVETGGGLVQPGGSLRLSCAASGFTLNLYGISWVRQAPGKGPEWVSVIYSEGRRTFYGDSVKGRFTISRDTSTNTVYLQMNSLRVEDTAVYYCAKGRACGTFDSWGQGTLVTVSS, the assay gave nd (0 of 3 replicates).
For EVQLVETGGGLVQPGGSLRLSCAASGFTLNSYGISWVRQAPGKGPEWVSVIYSDGRRHFHGDSVKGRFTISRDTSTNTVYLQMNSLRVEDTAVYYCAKGRAPGTFDSWGQGTLVTVSS, the assay gave nd (0 of 3 replicates).
For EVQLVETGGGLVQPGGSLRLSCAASGFTLNSYGISWVRQAPGKGPEWVSVIYSDGRRTKYGDSVKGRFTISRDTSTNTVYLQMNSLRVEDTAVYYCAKGKAYGTFDSWGQGTLVTVSS, the assay gave nd (0 of 3 replicates).
For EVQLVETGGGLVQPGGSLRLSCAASGFTLNSYGISWVRQAPGKGPEWVSVIYSDFRRTFYGDSVKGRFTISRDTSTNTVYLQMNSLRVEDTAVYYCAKGFAEGTFDSWGQGTLVTVSS, the assay gave nd (0 of 3 replicates).
For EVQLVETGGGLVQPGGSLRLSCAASGFTLNSYGISWVRQAPGKGPEWVSVIYSDGRRTFYGDSVKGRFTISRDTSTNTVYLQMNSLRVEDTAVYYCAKGRATGTFDSWGQGTLVTVSS, the assay gave nd (0 of 3 replicates).
For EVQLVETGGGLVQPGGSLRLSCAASGFTLNSYGISWVRQAPGKGPEWVSVIYSDGRRTKYGDSVKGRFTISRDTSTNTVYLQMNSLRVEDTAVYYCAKGRNYGTFDSWGQGTLVTVSS, the assay gave 62 µM (3 of 3 replicates).
For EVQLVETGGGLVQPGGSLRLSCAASGFTLNGYGISWVRQAPGKGPEWVSVIYSDGRRTFYGDSVKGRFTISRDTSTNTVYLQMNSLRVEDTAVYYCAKGRACGRFDSWGQGTLVTVSS, the assay gave 8.7 nM (2 of 3 replicates).
For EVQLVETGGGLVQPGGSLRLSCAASGFTLNSYRISWVRQAPGKGPEWVSVIYSDGRRTFYGDSVKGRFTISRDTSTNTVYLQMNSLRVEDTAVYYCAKGRAGGTFPSWGQGTLVTVSS, the assay gave nd (0 of 3 replicates).
For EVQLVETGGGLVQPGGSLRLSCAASGFTLNAPGISWVRQAPGKGPEWVSVIYSDGRRTFYGDSVKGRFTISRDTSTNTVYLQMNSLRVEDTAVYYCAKGRAQGTFDSWGQGTLVTVSS, the assay gave 12 µM (1 of 3 replicates).
For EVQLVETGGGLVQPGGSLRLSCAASGFTLNDYGISWVRQAPGKGPEWVSVIYSDGRRTFYGDSVWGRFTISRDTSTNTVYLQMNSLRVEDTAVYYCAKGRALGTFDSWGQGTLVTVSS, the assay gave 45 µM (1 of 3 replicates).
For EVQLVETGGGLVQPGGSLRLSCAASGFTLESYGISWVRQAPGKGPEWVSVIYSDGRRNFYGDSVKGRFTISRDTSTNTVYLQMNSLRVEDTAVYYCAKGRAVGTFDSWGQGTLVTVSS, the assay gave nd (0 of 3 replicates).
For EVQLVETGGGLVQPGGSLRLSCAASGFTLNSYGISWVRQAPGKGPEWVSVIYSDGRRTFYGDMVKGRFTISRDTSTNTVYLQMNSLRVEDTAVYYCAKGRAIGTFDLWGQGTLVTVSS, the assay gave 11 µM (3 of 3 replicates).
For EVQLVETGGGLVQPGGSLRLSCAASGFTLNSYGISWVRQAPGKGPEWVSVIYSDGRRHFYGDSVKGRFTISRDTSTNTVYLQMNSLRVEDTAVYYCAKGRAYGTFDSWGQGTLVTVSS, the assay gave 31 nM (2 of 3 replicates).
For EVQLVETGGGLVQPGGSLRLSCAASGFTLNSYGISWVRQAPGKGPEWVSVIYSDGRRTFYGDSVKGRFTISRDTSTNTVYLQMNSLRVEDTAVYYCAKGSAPGTFDAWGQGTLVTVSS, the assay gave 13 nM (3 of 3 replicates).
For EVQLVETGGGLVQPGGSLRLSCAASGFTLNSYGISWVRQAPGKGPEWVSVIYSDGRRTFEGDSVKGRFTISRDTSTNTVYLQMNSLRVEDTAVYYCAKSRAPGTFDSWGQGTLVTVSS, the assay gave 110 µM (2 of 3 replicates).
For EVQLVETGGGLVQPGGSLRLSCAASGFTLNSYGISWVRQAPGKGPEWVSVIYSDGRRTFYGNSHKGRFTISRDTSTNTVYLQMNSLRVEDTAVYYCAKGRAEGTFDSWGQGTLVTVSS, the assay gave nd (0 of 3 replicates).
For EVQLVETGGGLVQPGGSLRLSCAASGFTLNSYGISWVRQAPGKGPEWVSVIISDGRRTFPGDSVKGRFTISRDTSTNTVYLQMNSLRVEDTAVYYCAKGRAQGTFDSWGQGTLVTVSS, the assay gave 2.4 µM (1 of 3 replicates).
For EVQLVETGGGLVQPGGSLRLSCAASGFTLNSYGISWVRQAPGKGPEWVSVILSDGPRTFYGDSVKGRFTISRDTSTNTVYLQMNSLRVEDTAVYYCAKGRAMGTFDSWGQGTLVTVSS, the assay gave 32 µM (2 of 3 replicates).
For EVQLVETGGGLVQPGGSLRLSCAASGFTLNSFGISWVRQAPGKGPEWVSVPYSDGRRTFYGDSVKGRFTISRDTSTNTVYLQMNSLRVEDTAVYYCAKGRADGTFDSWGQGTLVTVSS, the assay gave nd (0 of 3 replicates).

3 of these entries, quoted again:

VH,Kd (apparent),detected
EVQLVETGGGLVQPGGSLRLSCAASGFTLNSYGISWVRQAPGKGPEWVSVIYSDGRRTFYGFSVKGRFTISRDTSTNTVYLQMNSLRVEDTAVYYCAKSRAKGTFDSWGQGTLVTVSS,3.4 µM,1 of 3
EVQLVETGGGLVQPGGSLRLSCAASGFTLNSYGISWVRQAPGKGPEWVSVIISDGRRTFPGDSVKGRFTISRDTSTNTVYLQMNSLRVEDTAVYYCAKGRAQGTFDSWGQGTLVTVSS,2.4 µM,1 of 3
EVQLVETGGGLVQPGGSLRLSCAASGFTLNSYGISWVRQAPGKGPEWVSVIYSDGRRTFYGNSHKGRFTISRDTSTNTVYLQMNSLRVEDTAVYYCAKGRAEGTFDSWGQGTLVTVSS,nd,0 of 3